US20100184648A1, “Therapeutic agent for non-alcoholic fatty liver disease, and screening method for drug candidate compound for treatment or prevention of non-alcoholic fatty liver disease” (priority 2006, published 2010)

Legend:
Glutamate AMPA = experiment: Receptor specificity: inhibition ratio, Glutamate AMPA; assay type: binding; details: final concentration of 10 μM
Experimental: (§1) The inhibitory action of Compound A against various receptors listed in Table 2 was examined to evaluate the specificity of Compound A. The activities of the receptors were measured by using an appropriate assay system according to the property of the respective receptors. Further, the evaluation results of Compound A were calculated as an inhibition ratio at a final concentration of 10 μM. Here, the inhibition ratio was calculated based on a value of a control compound in each assay. As is apparent from the results shown in Table 2, it was confirmed that Compound A is specific to an MCH receptor.

NASH mice induced by HFD = experiment: Effect on NASH mice induced by HFD, intraventricular administration; assay type: in vivo, mice (C57BL/6J)
Description: Male mice (C57BL/6J, Nippon CLEA) were fed with HFD (a high fat diet, D12492, Research Diets Inc.) for about 1 year. The obtained mice were used as an NASH pathological model, and an effect of Compound A on the NASH mice was examined.
The mice were fed with HFD or a normal diet (CE-2). During the test period, the feed and water were given ad libitum, and the mice were not subjected to fasting.
In order to intraventricularly administer an agent, a cannula was inserted into mice at 62 weeks of age in the same manner as in Example 1. Incidentally, an antibiotic used was 100 mg/kg of Cefamezin α.
The numbers of mice allocated to the respective groups are as follows.
The intraventricular administration of Compound A was carried out in the same manner as in Example 1. Also, the vehicle was administered in the same manner as in Example 1.
At 4 weeks after the initiation of administration of an agent, the blood and organs of the mice were collected in the same manner as in Example 1. Incidentally, before the dissection of mice, the body fat percentage was measured using NMR (Minispec mq 7.5, Bruker Optics). The hepatic triglyceride, ALT and AST were measured in the same manner as in Example 2. Further, histopathological observation of the liver was carried out in the same manner as in Example 2.

DIO mice = experiment: Effect on DIO mice (MHF diet), intraventricular administration; assay type: in vivo, mice (C57BL/6J); details: 7.5 μg/day intraventricular
[1] = test system: 173 kinds of physiologically functional proteins; experiment: Specificity panel of 173 physiologically functional proteins; assay type: binding; details: final concentration of 10 μM; other than the MCH receptors
Experimental: as §1

[2] = test system: NASH mice induced by MCD diet; experiment: Effect on NASH mice induced by MCD diet, intraventricular administration; assay type: in vivo, mice (C57BL/6J)
Description: Male mice (C57BL/6J, Nippon CLEA) were fed with MCD diet (a methionine choline deficient diet) to produce mice in which NASH was induced, and an effect of Compound A on the NASH mice was examined.
In order to intraventricularly administer an agent, a cannula was inserted into mice at 16 to 17 weeks of age in the same manner as in Example 1. Incidentally, mice which were continued to be raised with a normal diet (CE-2) were subjected to sham surgery (only incision and suture of the dorsal skin).
After a sufficient period of time for recovery (1 to 2 weeks) from the insertion of cannula had passed, the mice were divided such that the body weights became equal between groups. The numbers of mice allocated to the respective groups are as follows. Incidentally, the mice were raised with the normal diet (CE-2) and at 4 days after initiation of administration of an agent, the diet was changed to a predetermined diet.
The intraventricular administration of Compound A was carried out in the same manner as in Example 1. Also, the vehicle was administered in the same manner as in Example 1. As the pellet-type MCD diet and control diet, ICN 960439 and ICN 960441 available from ICN Biomedicals were used, respectively.
On day 11 after initiation of loading of the MCD diet, the blood and organs of the mice were collected in the same manner as in Example 1. The biochemical parameters measured for the plasma sample from the heart were AST and ALT, which were measured with HITACHI Clinical analyzer 7070 (Hitachi Co., Ltd.).
Further, a portion of the liver was excised during dissection, and measurement of hepatic biochemical parameters, measurement of hepatic mRNA, and histopathological observation were carried out. The measurement of hepatic biochemical parameters and measurement of mRNA were carried out according to the following procedure. One lobe of the liver was excised and after the weight thereof was measured, it was cryopreserved. The cryopreserved one lobe of the liver was homogenized, and a lipid fraction was extracted from a portion of the resulting homogenate with Folch reagent. Then, the extracted lipid fraction was dried and hardened with nitrogen gas, and the triglyceride was measured using Determiner L TG II (Kyowa Medex). Further, by using a portion of the homogenate, TBARS (thiobarbituric acid reactive substance, one of the markers for oxidative stress), which is a parameter of lipid peroxide, was measured with reference to the method described in Method in Enzymology, vol. 186, p. 407 (1990). From the portion of the liver (50 mg) collected for measurement of mRNA, RNA was extracted using ISOGEN (NIPPON GENE), and cDNA was synthesized using Taqman RT reagents (Applied Biosystems). By using Taqman real time PCR (HT7900, Applied Biosystems), TNFα and IL-113, which are inflammatory cytokines, and the expression level of Cyp4A14, which is involved in the formation of lipid peroxide, were measured (the expression level was represented by a ratio to 18s rRNA). The histopathological observation was carried out according to the following procedure. The middle lobe of the liver was excised and fixed in a 10% neutral buffered formalin solution. A paraffin section was prepared according to a standard method, and HE staining and fat staining were carried out. Histopathological evaluation of tissue lesions including inflammatory cell infiltration and hepatocellular vacuolation (fatty change) was carried out by using the degree of the change and range of the distribution as indices.

[3] = HF diet, n = 6, grade Very slight

CSCC[C@@H]1NC(=O)[C@@H](NC(=O)[C@H](CCCNC(=N)N)NC(C)=O)CSSC[C@@H](C(N)=O)NC(=O)CCCCNC(=O)[C@H](Cc2ccc(O)cc2)NC(=O)[C@H](C(C)C)NC(=O)[C@H](CCCNC(=N)N)NC(=O)CCCCNC1=O [Compound A, H2N-Cys-Ava-Tyr-Val-Arg-Ava-Met-Cys-Arg-C(═O)CH3]
Inhibition ratio (Glutamate AMPA): 8 | Hepatocellular vacuolation, Moderate (number of mice) (NASH mice induced by HFD; HF diet, n = 6, grade Moderate): 3 | Hepatocellular vacuolation, Significant (number of mice) (NASH mice induced by HFD; HF diet, n = 6, grade Significant): 0 | Hepatocellular vacuolation, Slight (number of mice) (NASH mice induced by HFD; HF diet, n = 6, grade Slight): 2 | Multifocal cell infiltration, Slight (number of mice) (NASH mice induced by HFD; HF diet, n = 6, grade Slight): 0 | Hepatocellular vacuolation, Very slight (number of mice) (NASH mice induced by HFD; [3]): 1 | Multifocal cell infiltration, Very slight (number of mice) (NASH mice induced by HFD; [3]): 3 | Single cell necrosis, Very slight (number of mice) (NASH mice induced by HFD; [3]): 0 | hepatic triglyceride level (NASH mice induced by HFD; HFD, 4 weeks of administration, FIG. 8(a)): the increase thereof was suppressed | plasma ALT level (NASH mice induced by HFD; HFD, 4 weeks of administration, FIG. 8(b)): the increase thereof was suppressed | plasma AST level (NASH mice induced by HFD; HFD, 4 weeks of administration, FIG. 8(c)): the increase thereof was suppressed | liver pathology: lipid droplets and inflammatory cell infiltration (NASH mice induced by HFD; HFD, vs vehicle group, FIG. 9): both were reduced | liver weight (DIO mice; FIG. 1(a)): decrease to a normal level | plasma ALT (DIO mice; FIG. 1(b)): decrease to a normal level | affinity for 173 kinds of physiologically functional proteins [1]: the affinity thereof could not be found other than the MCH receptors | TBARS level in the liver ([2]; FIG. 6(a)): suppressed | plasma AST level ([2]; day 11, 7.5 μg/day intraventricular, FIG. 2): the increase thereof was suppressed | hepatic triglyceride level ([2]; day 11, FIG. 3): suppressed | expression level of Cyp4A14 in the liver ([2]; mRNA, ratio to 18s rRNA, FIG. 6(b)): decreased | expression level of TNFα in the liver ([2]; mRNA, ratio to 18s rRNA, FIG. 7(a)): decreased | expression level of IL-1β in the liver ([2]; mRNA, ratio to 18s rRNA, FIG. 7(b)): decreased | Multifocal cell infiltration, Moderate (number of mice) ([2]; n = 10, grade Moderate): 0 | Multifocal cell infiltration, Slight (number of mice) ([2]; n = 10, grade Slight): 4 | Single cell necrosis, Slight (number of mice) ([2]; n = 10, grade Slight): 0 | Multifocal cell infiltration, Very slight (number of mice) ([2]; n = 10, grade Very slight): 6 | Single cell necrosis, Very slight (number of mice) ([2]; n = 10, grade Very slight): 10 | liver pathology: lipid droplets and inflammatory cell infiltration ([2]; vs vehicle group, FIG. 4): both were reduced
